Laboratory results: patent US9707184B2, “Immediate release abuse deterrent liquid fill dosage form” (priority 2014, dated 2017)

Assay: Solubility of the formulation components in water and alcohol
Format: physicochemical
Details: 200 proof ethanol, filtered through a 0.45 micrometer PTFE filter

With O=S(=O)([O-])c1ccc(N=Nc2c(O)ccc3cc(S(=O)(=O)[O-])ccc23)cc1.[Na+].[Na+] [FD&C Yellow #6] as the molecule, how does the “Alcohol Solubility (Tested)” value read?
Its value is “Yes”.
